Experiments:
human ACC2 = human ACC2 (Homo sapiens, UniProt O00763); assay: Transcreener ACC inhibition assay, recombinant human ACC2; type: biochemical; conditions: lipophilic efficiency
human ACC1 = human ACC1 (Homo sapiens, UniProt Q13085); assay: Transcreener ACC inhibition assay, recombinant human ACC1; type: biochemical; conditions: lipophilic efficiency

Protein sequences, listed by entry. Tags and fused reporters are not part of them.
UniProt O00763, whole entry: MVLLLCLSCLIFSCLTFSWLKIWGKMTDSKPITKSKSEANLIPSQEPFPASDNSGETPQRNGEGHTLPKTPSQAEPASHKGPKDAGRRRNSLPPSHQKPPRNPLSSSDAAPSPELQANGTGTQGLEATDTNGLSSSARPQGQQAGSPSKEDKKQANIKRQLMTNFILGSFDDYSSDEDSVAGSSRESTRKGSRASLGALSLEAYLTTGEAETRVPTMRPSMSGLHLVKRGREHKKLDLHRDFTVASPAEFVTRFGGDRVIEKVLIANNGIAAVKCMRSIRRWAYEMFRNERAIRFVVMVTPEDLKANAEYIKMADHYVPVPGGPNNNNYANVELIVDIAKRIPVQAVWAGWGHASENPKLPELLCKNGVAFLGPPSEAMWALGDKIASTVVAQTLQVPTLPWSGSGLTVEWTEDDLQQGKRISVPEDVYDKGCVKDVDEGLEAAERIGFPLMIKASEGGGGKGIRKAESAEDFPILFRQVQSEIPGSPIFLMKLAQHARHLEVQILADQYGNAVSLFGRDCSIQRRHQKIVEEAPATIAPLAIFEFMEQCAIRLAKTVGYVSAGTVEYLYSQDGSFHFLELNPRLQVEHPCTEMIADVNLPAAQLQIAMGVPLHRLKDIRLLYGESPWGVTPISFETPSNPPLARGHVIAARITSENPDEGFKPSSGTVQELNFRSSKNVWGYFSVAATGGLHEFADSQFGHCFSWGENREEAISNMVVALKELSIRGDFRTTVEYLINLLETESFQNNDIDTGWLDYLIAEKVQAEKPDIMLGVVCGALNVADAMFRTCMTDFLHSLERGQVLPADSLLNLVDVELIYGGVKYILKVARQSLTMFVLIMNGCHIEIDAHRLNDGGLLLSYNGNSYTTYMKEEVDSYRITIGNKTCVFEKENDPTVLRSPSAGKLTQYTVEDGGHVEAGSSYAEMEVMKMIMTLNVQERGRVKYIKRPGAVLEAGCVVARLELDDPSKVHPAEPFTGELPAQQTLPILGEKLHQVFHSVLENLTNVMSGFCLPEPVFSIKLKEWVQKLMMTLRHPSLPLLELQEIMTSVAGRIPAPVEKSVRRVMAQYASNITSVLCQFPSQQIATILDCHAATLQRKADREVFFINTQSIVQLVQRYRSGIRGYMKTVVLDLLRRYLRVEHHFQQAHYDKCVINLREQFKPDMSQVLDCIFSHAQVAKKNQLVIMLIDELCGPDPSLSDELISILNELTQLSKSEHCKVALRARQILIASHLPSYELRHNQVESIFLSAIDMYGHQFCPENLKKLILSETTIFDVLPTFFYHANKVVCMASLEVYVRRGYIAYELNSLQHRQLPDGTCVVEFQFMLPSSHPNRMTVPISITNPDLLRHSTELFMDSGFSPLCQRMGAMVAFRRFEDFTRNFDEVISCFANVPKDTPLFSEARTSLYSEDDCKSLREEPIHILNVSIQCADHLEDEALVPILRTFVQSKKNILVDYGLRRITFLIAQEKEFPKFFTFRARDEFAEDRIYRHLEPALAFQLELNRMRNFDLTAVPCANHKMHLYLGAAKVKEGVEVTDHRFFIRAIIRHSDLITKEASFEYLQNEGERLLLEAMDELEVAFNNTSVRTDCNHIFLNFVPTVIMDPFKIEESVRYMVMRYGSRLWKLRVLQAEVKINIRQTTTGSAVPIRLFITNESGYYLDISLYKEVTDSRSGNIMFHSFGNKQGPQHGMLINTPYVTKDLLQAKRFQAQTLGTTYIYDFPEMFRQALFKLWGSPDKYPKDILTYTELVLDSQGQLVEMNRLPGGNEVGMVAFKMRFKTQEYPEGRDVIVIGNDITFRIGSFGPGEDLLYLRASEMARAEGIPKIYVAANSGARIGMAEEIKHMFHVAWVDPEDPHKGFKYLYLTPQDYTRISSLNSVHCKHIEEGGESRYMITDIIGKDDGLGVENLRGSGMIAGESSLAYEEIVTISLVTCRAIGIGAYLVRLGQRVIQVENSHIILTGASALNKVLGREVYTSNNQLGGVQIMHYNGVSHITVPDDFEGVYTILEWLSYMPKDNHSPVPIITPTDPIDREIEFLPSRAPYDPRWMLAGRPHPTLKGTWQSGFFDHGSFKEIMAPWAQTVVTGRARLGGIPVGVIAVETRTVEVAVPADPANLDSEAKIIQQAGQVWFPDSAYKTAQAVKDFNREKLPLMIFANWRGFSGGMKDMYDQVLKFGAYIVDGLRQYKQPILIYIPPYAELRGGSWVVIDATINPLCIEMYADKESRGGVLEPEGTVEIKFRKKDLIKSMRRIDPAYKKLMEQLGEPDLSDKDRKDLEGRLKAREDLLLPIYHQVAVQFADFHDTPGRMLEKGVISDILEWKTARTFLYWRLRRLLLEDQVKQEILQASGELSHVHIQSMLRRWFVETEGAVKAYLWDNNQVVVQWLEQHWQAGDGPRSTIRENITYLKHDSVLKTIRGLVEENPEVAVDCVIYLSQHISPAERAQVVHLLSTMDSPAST

ACC2 LipE (human ACC2): 5.5
ACC1 LipE (human ACC1): 5.1
Compound: Cc1nc2ccc(C(=O)N3CCC4(CC3)CC(=O)c3c(cnn3C(C)C)C4)cc2[nH]1 [Compound 9, 1-Isopropyl-1′-(2-methyl-1H-benzo[d]imidazole-6-carbonyl)-1,4-dihydrospiro[indazole-5,4′-piperidin]-7(6H)-one]

— article PMC4281100 (Journal of Medicinal Chemistry, 2014)
